Yeast UUG start = alters start codon recognition fidelity in yeast | S. cerevisiae UUG-firefly luciferase reporter, luminescence/redox ratio | activity score, % at 18.7 µM | hit rate 0.13% among 350,000 | AID 602363;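 active means replicate mean at a twofold rise or more, about +100% in these data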;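 further: firefly luciferase made from a UUG start codon reports start codon fidelity; reporter light over untreated wells divided by growth signal over untreated wells; some hits fall short of that in this replicate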
MC4R ag barr = activates human MC4R beta-arrestin recruitment; actives 0.98% (n = 360,000); activation, % at 8.9 µM; P32245; U2OS MC4R beta-arrestin complementation, luminescence; percent of melanotan II response, DMSO zero;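 active means activation above a per-plate cutoff, the mean activation of sample wells on that plate plus 3 SD, cut at about 8% in these data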
NALP1 inh = NALP1 inhibition; inhibition, % at 10 µM; S. cerevisiae NALP1/ASC/caspase-1 growth, X-gal OD620, 72 h; actives 0.61% (n = 280,000); in the data active means inhibition mostly above about 24%, no sharp cut-off; inactive means mostly below about 32%
HDAC3 inhib = inhibitors of human histone deacetylase 3; inhibition, % at 8.3 µM; actives 0.15% (n = 320,000); recombinant HDAC3, fluorogenic peptide/trypsin coupled, fluorescence; in the data active means inhibition above about 26%, passing the limit was not always enough
MC4R antag cAMP = human MC4R antagonism in cAMP assay. MC4R-expressing cells, MTII-stimulated cAMP, LANCE TR-FRET. inhibition, % at 6.5 µM. actives 0.48% (n = 360,000). AID 540295;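 active means inhibition above its plate's cutoff, the mean of tested wells on that plate plus 3 SD, cut at about 29% in these data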;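 further: 0% = Melanotan II alone and 100% = Melanotan II plus saturating MCL0020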
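Material: human MC4R-expressing U2OS cells. Probe or stimulus: Melanotan II challenge. Dosing: 6.5 µM single dose. Times: 30-min compound, 1-h challenge, 1-h detection, room temperature. Technique: TR-FRET with Eu-cAMP and labeled anti-cAMP, 671 nm. Replication: singlicate.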
ALR H2O2 inh = inhibitors of human ALR sulfhydryl oxidase, primary screen, biochemical, H2O2 detection, HRP-luminol luminescence, single point | AID 485317, 2010 | inhibition, % (test concentration not listed) | purified ALR, DTT oxidation | FAD-linked sulfhydryl oxidase ALR (Homo sapiens), P55789 | hit rate 3.8% among 290,000;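 active = mean and each replicate at 75% or more; inconclusive = only one of the two met; inactive = neither met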;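 also: stock transfer was 7.5 nL into about 7.5 µL; 0% = neutral wells and 100% = wells with inactivated enzyme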
cAMP nonselect = counter-screen for MC4R antagonists: nonselective cAMP signaling inhibitors. shares compounds with MC4R antag cAMP. parental U2OS, forskolin cAMP, LANCE TR-FRET. inhibition, % at 6.5 µM. actives 26% (n = 1,600). AID 602193;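 active means mean inhibition over triplicates above the low-control well mean plus 3 SD, set per campaign, cut at about 13% in these data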;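 further: signal is single emission at 671 nm which falls as cellular cAMP rises; 0% = forskolin-stimulated wells and 100% = buffer without forskolin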
MC4R antag conf = human MC4R cAMP antagonism confirmation. inhibition, % at 6.5 µM. MC4R-expressing cells, MTII-stimulated cAMP, TR-FRET. AID 602195. actives 27% (n = 1,600). shares compounds with MC4R antag cAMP; in the data active means inhibition above about 29%;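 further: 0% = agonist stimulated wells alone and 100% = agonist stimulated wells plus saturating reference antagonist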
* hit, by the source's call; · = no result given. In the library only some 4.2% were active in any assay of this set; here they are far more common.

SMILES | Yeast UUG start | MC4R ag barr | NALP1 inh | HDAC3 inhib | MC4R antag cAMP | ALR H2O2 inh | cAMP nonselect | MC4R antag conf
CC(C)OP(=O)(OC(C)C)C(Nc1ccc([N+](=O)[O-])cc1)c1cccc([N+](=O)[O-])c1 (stereo not drawn) | · | -3 | 4 | 11 | 5 | -3 | · | ·
CCOc1cc(/C=C2\N=C(C)OC2=O)cc(Br)c1OCC(=O)OC | · | -1 | 22 | 18 | 44* | · | -3 | -13
CCOc1cc(/C=C2\N=C(C)OC2=O)cc(Br)c1OCCc1ccccc1 | 0 | -2 | 4 | 3 | 19 | 24 | · | ·
C[C@@H]1CN([C@@H](C)CO)C(=O)c2cc(NC(=O)Nc3ccccc3)ccc2O[C@@H](C)CCCCO[C@@H]1CN(C)C | 8 | · | · | · | · | · | · | ·
O=C(CN1C(=O)NC2(CCCC2)C1=O)Nc1ccc(S(=O)(=O)N2CCOCC2)cc1 | -14 | -2 | 4 | 6 | 34* | 1 | 1 | -3
COc1ccccc1CN1C[C@H](C)[C@@H](OC)CN(C)C(=O)c2ccc(NC(C)=O)cc2OC[C@@H]1C | -2 | · | · | · | · | · | · | ·
OC[C@H]1[C@H](c2ccc(C#Cc3ccccc3)cc2)[C@H]2CN(Cc3cncnc3)CCCCN21 | 10 | · | · | · | · | · | · | ·
CNC(=O)NC(=O)C(C)OC(=O)c1c2c(nc3ccccc13)/C(=C/c1cccs1)CC2 (stereo not drawn) | -8 | 8 | 22 | · | 30* | · | 4 | 17
CCCCNC(=O)COC(=O)c1c2c(nc3ccccc13)/C(=C/c1cccs1)CC2 | · | 5 | -2 | -3 | 13 | -21 | · | ·
CCOC(=O)CNC(=S)N(CCCN1CCCCCC1)Cc1cccs1 | · | 0 | 15 | 10 | 34* | 1 | 1 | 0
CCOCCOC(=O)c1ccc(-n2cnc(C)n2)nc1 | · | 0 | 4 | 4 | 10 | 31 | · | ·
Cc1ncn(-c2ccc(C(=O)Oc3ccccc3)cn2)n1 | · | -1 | 0 | -2 | 29* | -3 | 10 | 24
O=C(C[C@@H]1C[C@@H]2c3cc(NC(=O)Cc4ccncc4)ccc3O[C@@H]2[C@H](CO)O1)NCC1CC1 | 2 | · | · | · | · | · | · | ·
N#CC1(NC(=O)Cn2ncc(Cl)c(Cl)c2=O)CCCCC1 | -17 | -3 | · | -1 | 35* | 1 | 25* | 37*
Cc1ccc(-c2cc(NC(=O)CCl)n(-c3ccccc3)n2)cc1 | 10 | 1 | · | 4 | 26 | 12 | · | ·
Cc1ccc(-c2nn(-c3ccccc3)cc2NC(=O)CCl)cc1 | · | 2 | 14 | 0 | 37* | 2 | 10 | 41*
C[C@@H]1CN([C@@H](C)CO)C(=O)c2cc(NS(=O)(=O)c3cccs3)ccc2O[C@@H](C)CCCCO[C@@H]1CN(C)S(=O)(=O)c1ccc(F)cc1 | -1 | · | · | · | · | · | · | ·
COc1ccc(N2CCN(C(=O)Nc3ccccc3Cl)CC2)cc1 | · | 2 | 16 | 0 | 37* | 87* | -1 | 4
COCc1cn(CC[C@@H]2CC[C@@H](NC(=O)Nc3ccc(Cl)cc3)[C@H](CO)O2)nn1 | -20 | · | · | · | · | · | · | ·
COCC(=O)Nc1ccc2c(c1)C(=O)N(C)[C@@H]1CC[C@H](CC(=O)NCc3ccc(OC)cc3)O[C@H]1CO2 | -9 | · | · | · | · | · | · | ·

Rewritten as labelled records: entries from further up
Molecule: CCOc1cc(/C=C2\N=C(C)OC2=O)cc(Br)c1OCC(=O)OC
  Yeast UUG start: ·
  MC4R ag barr: -1
  NALP1 inh: 22
  HDAC3 inhib: 18
  MC4R antag cAMP: 44*
  ALR H2O2 inh: ·
  cAMP nonselect: -3
  MC4R antag conf: -13
Molecule: CCOc1cc(/C=C2\N=C(C)OC2=O)cc(Br)c1OCCc1ccccc1
  Yeast UUG start: 0
  MC4R ag barr: -2
  NALP1 inh: 4
  HDAC3 inhib: 3
  MC4R antag cAMP: 19
  ALR H2O2 inh: 24
  cAMP nonselect: ·
  MC4R antag conf: ·
Molecule: C[C@@H]1CN([C@@H](C)CO)C(=O)c2cc(NC(=O)Nc3ccccc3)ccc2O[C@@H](C)CCCCO[C@@H]1CN(C)C
  Yeast UUG start: 8
  MC4R ag barr: ·
  NALP1 inh: ·
  HDAC3 inhib: ·
  MC4R antag cAMP: ·
  ALR H2O2 inh: ·
  cAMP nonselect: ·
  MC4R antag conf: ·

Continued:
SMILES | Yeast UUG start | MC4R ag barr | NALP1 inh | HDAC3 inhib | MC4R antag cAMP | ALR H2O2 inh | cAMP nonselect | MC4R antag conf
CCSc1nnc(-c2ccccc2SC)o1 | · | -2 | 16 | -1 | 30* | -31 | 8 | 10
COc1ccccc1NC(=O)Nc1ccc2c(c1)OC[C@@H](C)N(Cc1ccccc1Cl)C[C@@H](C)[C@H](OC)CN(C)C2=O | -13 | · | · | · | · | · | · | ·
Cc1nc2ccc(NC(=O)c3ccc(S(=O)(=O)N(C)c4ccccc4)cc3)cc2s1 | · | -1 | 29 | 14 | 30* | -4 | 27* | 25
CC(=O)Nc1ccc(NC(=O)c2ccc(S(=O)(=O)N(C)c3ccccc3)cc2)cc1 | -2 | -1 | · | 4 | 11 | -2 | · | ·
COc1cccc(NS(=O)(=O)c2ccc3[nH]cc(C(=O)NCCC(C)C)c(=O)c3c2)c1 | -14 | 1 | 14 | 0 | 29* | -5 | 2 | -3
